Measurements taken from patent US7235627B2, “Derivatives of GLP-1 analogs” (Novo Nordisk A/S, priority 1996, dated 2007).

Assay: Protraction of GLP-1 derivatives after s.c. administration: plasma concentration by RIA
Assay type: in vivo, pigs (50% Duroc, 25% Yorkshire, 25% Danish Landrace)
Details: healthy pigs, 0.5 nmol/kg sc, 0.75 h after administration, n=2

Row | Substance | plasma concentration, % of the maximum concentration for the individual compound
1 | Lys^26,34bis(N^ε-(ω-carboxyundecanoyl))-GLP-1(7–37)-OH [Example 17] | 76%
2 | Arg^26,34Lys^38(N^ε-(ω-carboxyheptadecanoyl))-GLP-1(7–38)-OH [Example 13] | 15%
3 | Lys^26,34-bis(N^ε-(ω-carboxytridecanoyl))-GLP-1(7–37)-OH [Example 32] | 55%
4 | Arg^26,34Lys^38(N^ε-(ω-carboxypentadecanoyl))-GLP-1(7–38)-OH [Example 39] | 38%
5 | Arg^34Lys^26(N^ε-(ω-carboxyheptadecanoyl))-GLP-1(7–37)-OH [Example 11] | 24%

Same assay, conditions: healthy pigs, 0.5 nmol/kg sc, 1 h after administration, n=2

Row | Substance | plasma concentration, % of the maximum concentration for the individual compound
6 | Arg^34Lys^26(N^ε-(γ-glutamyl(N^α-tetradecanoyl)))-GLP-1(7–37)-OH [Example 43] | 39%
7 | Lys^26,34bis(N^ε-(ω-carboxyundecanoyl))-GLP-1(7–37)-OH [Example 17] | 71%
8 | Arg^26,34Lys^38(N^ε-(ω-carboxyheptadecanoyl))-GLP-1(7–38)-OH [Example 13] | 22%
9 | Lys^26,34-bis(N^ε-(ω-carboxytridecanoyl))-GLP-1(7–37)-OH [Example 32] | 53%
10 | Arg^26,34Lys^38(N^ε-(ω-carboxypentadecanoyl))-GLP-1(7–38)-OH [Example 39] | 100%
11 | Arg^34Lys^26(N^ε-(ω-carboxyheptadecanoyl))-GLP-1(7–37)-OH [Example 11] | 47%
12 | Arg^34Lys^26(N^ε-(γ-glutamyl(N^α-hexadecanoyl)))-GLP-1(7–37)-OH [Example 37] | 26%

Same assay, conditions: healthy pigs, 0.5 nmol/kg sc, 2 h after administration, n=2

Row | Substance | plasma concentration, % of the maximum concentration for the individual compound
13 | Arg^34Lys^26(N^ε-(γ-glutamyl(N^α-tetradecanoyl)))-GLP-1(7–37)-OH [Example 43] | 71%
14 | Lys^26,34bis(N^ε-(ω-carboxyundecanoyl))-GLP-1(7–37)-OH [Example 17] | 91%
15 | Arg^26,34Lys^38(N^ε-(ω-carboxyheptadecanoyl))-GLP-1(7–38)-OH [Example 13] | 38%
16 | Lys^26,34-bis(N^ε-(ω-carboxytridecanoyl))-GLP-1(7–37)-OH [Example 32] | 90%
17 | Arg^26,34Lys^38(N^ε-(ω-carboxypentadecanoyl))-GLP-1(7–38)-OH [Example 39] | 70%
18 | Arg^34Lys^26(N^ε-(ω-carboxyheptadecanoyl))-GLP-1(7–37)-OH [Example 11] | 59%
19 | Arg^34Lys^26(N^ε-(γ-glutamyl(N^α-hexadecanoyl)))-GLP-1(7–37)-OH [Example 37] | 38%

Same assay, conditions: healthy pigs, 0.5 nmol/kg sc, 4 h after administration, n=2

Row | Substance | plasma concentration, % of the maximum concentration for the individual compound
20 | Arg^34Lys^26(N^ε-(γ-glutamyl(N^α-tetradecanoyl)))-GLP-1(7–37)-OH [Example 43] | 93%
21 | Lys^26,34bis(N^ε-(ω-carboxyundecanoyl))-GLP-1(7–37)-OH [Example 17] | 100%
22 | Arg^26,34Lys^38(N^ε-(ω-carboxyheptadecanoyl))-GLP-1(7–38)-OH [Example 13] | 59%
23 | Lys^26,34-bis(N^ε-(ω-carboxytridecanoyl))-GLP-1(7–37)-OH [Example 32] | 83%
24 | Arg^26,34Lys^38(N^ε-(ω-carboxypentadecanoyl))-GLP-1(7–38)-OH [Example 39] | 47%
25 | Arg^34Lys^26(N^ε-(ω-carboxyheptadecanoyl))-GLP-1(7–37)-OH [Example 11] | 71%
26 | Arg^34Lys^26(N^ε-(γ-glutamyl(N^α-hexadecanoyl)))-GLP-1(7–37)-OH [Example 37] | 97%

Same assay, conditions: healthy pigs, 0.5 nmol/kg sc, 6 h after administration, n=2

Row | Substance | plasma concentration, % of the maximum concentration for the individual compound
27 | Arg^34Lys^26(N^ε-(γ-glutamyl(N^α-tetradecanoyl)))-GLP-1(7–37)-OH [Example 43] | 100%
28 | Lys^26,34bis(N^ε-(ω-carboxyundecanoyl))-GLP-1(7–37)-OH [Example 17] | 84%
29 | Arg^26,34Lys^38(N^ε-(ω-carboxyheptadecanoyl))-GLP-1(7–38)-OH [Example 13] | 97%
30 | Lys^26,34-bis(N^ε-(ω-carboxytridecanoyl))-GLP-1(7–37)-OH [Example 32] | 88%
31 | Arg^26,34Lys^38(N^ε-(ω-carboxypentadecanoyl))-GLP-1(7–38)-OH [Example 39] | 33%
32 | Arg^34Lys^26(N^ε-(ω-carboxyheptadecanoyl))-GLP-1(7–37)-OH [Example 11] | 100%
33 | Arg^34Lys^26(N^ε-(γ-glutamyl(N^α-hexadecanoyl)))-GLP-1(7–37)-OH [Example 37] | 100%

Same assay, conditions: healthy pigs, 0.5 nmol/kg sc, 8 h after administration, n=2

Row | Substance | plasma concentration, % of the maximum concentration for the individual compound
34 | Arg^34Lys^26(N^ε-(γ-glutamyl(N^α-tetradecanoyl)))-GLP-1(7–37)-OH [Example 43] | 91%
35 | Lys^26,34bis(N^ε-(ω-carboxyundecanoyl))-GLP-1(7–37)-OH [Example 17] | 68%
36 | Arg^26,34Lys^38(N^ε-(ω-carboxyheptadecanoyl))-GLP-1(7–38)-OH [Example 13] | 85%
37 | Lys^26,34-bis(N^ε-(ω-carboxytridecanoyl))-GLP-1(7–37)-OH [Example 32] | 70%
38 | Arg^26,34Lys^38(N^ε-(ω-carboxypentadecanoyl))-GLP-1(7–38)-OH [Example 39] | 33%
39 | Arg^34Lys^26(N^ε-(ω-carboxyheptadecanoyl))-GLP-1(7–37)-OH [Example 11] | 94%
40 | Arg^34Lys^26(N^ε-(γ-glutamyl(N^α-hexadecanoyl)))-GLP-1(7–37)-OH [Example 37] | 71%

Same assay, conditions: healthy pigs, 0.5 nmol/kg sc, 10 h after administration, n=2

Row | Substance | plasma concentration, % of the maximum concentration for the individual compound
41 | Arg^34Lys^26(N^ε-(γ-glutamyl(N^α-tetradecanoyl)))-GLP-1(7–37)-OH [Example 43] | 59%
42 | Lys^26,34bis(N^ε-(ω-carboxyundecanoyl))-GLP-1(7–37)-OH [Example 17] | 30%
43 | Arg^26,34Lys^38(N^ε-(ω-carboxyheptadecanoyl))-GLP-1(7–38)-OH [Example 13] | 100%
44 | Lys^26,34-bis(N^ε-(ω-carboxytridecanoyl))-GLP-1(7–37)-OH [Example 32] | 98%
45 | Arg^26,34Lys^38(N^ε-(ω-carboxypentadecanoyl))-GLP-1(7–38)-OH [Example 39] | 18%
46 | Arg^34Lys^26(N^ε-(ω-carboxyheptadecanoyl))-GLP-1(7–37)-OH [Example 11] | 100%
47 | Arg^34Lys^26(N^ε-(γ-glutamyl(N^α-hexadecanoyl)))-GLP-1(7–37)-OH [Example 37] | 81%

Same assay, conditions: healthy pigs, 0.5 nmol/kg sc, 12 h after administration, n=2

Row | Substance | plasma concentration, % of the maximum concentration for the individual compound
48 | Arg^34Lys^26(N^ε-(γ-glutamyl(N^α-tetradecanoyl)))-GLP-1(7–37)-OH [Example 43] | 50%
49 | Lys^26,34-bis(N^ε-(ω-carboxytridecanoyl))-GLP-1(7–37)-OH [Example 32] | 100%
50 | Arg^26,34Lys^38(N^ε-(ω-carboxypentadecanoyl))-GLP-1(7–38)-OH [Example 39] | 27%
51 | Arg^34Lys^26(N^ε-(γ-glutamyl(N^α-hexadecanoyl)))-GLP-1(7–37)-OH [Example 37] | 80%

Same assay, conditions: healthy pigs, 0.5 nmol/kg sc, 24 h after administration, n=2

Row | Substance | plasma concentration, % of the maximum concentration for the individual compound
52 | Arg^34Lys^26(N^ε-(γ-glutamyl(N^α-tetradecanoyl)))-GLP-1(7–37)-OH [Example 43] | 17%
53 | Lys^26,34bis(N^ε-(ω-carboxyundecanoyl))-GLP-1(7–37)-OH [Example 17] | 9%
54 | Arg^26,34Lys^38(N^ε-(ω-carboxyheptadecanoyl))-GLP-1(7–38)-OH [Example 13] | 76%
55 | Lys^26,34-bis(N^ε-(ω-carboxytridecanoyl))-GLP-1(7–37)-OH [Example 32] | 100%
56 | Arg^26,34Lys^38(N^ε-(ω-carboxypentadecanoyl))-GLP-1(7–38)-OH [Example 39] | 14%
57 | Arg^34Lys^26(N^ε-(ω-carboxyheptadecanoyl))-GLP-1(7–37)-OH [Example 11] | 94%
58 | Arg^34Lys^26(N^ε-(γ-glutamyl(N^α-hexadecanoyl)))-GLP-1(7–37)-OH [Example 37] | 45%
